Curated experimental data: melting point values

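These are experimental values that the OPERA curators gathered from public databases to train and test their QSAR models. The files give a single number for a compound and property, which may rest on several reports. Method, purity and exact conditions of the single measurements are not given. Where a salt, mixture or single isomer is drawn, the source does not say that exactly this form was tested. Some entries may be limits or estimates that an upstream database listed as plain numbers.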

The melting point is given in degrees Celsius.
The databases behind each value are named after "via".

| structure (SMILES) | melting point (°C) | via |
|---|---|---|
| O=C1Nc2cc(OC(F)(F)F)ccc2C1=O | 184 | OCHEM |
| CC(=O)Nc1ccc2nn(C3CCCC3)nc2c1 | 94 | OCHEM |
| O=C(O)c1nn(Cc2ccccc2)c(=O)c2ccccc12 | 200 | OCHEM |
| BrCCC12CC3CC(CC(C3)C1)C2 | 57 | OCHEM |
| COc1ccc(-c2nc(C(=O)O)cs2)cc1OC | 205 | OCHEM |
| CCN(CCC(C)C)c1ccc2c(c1)Oc1cc(C)c(Nc3ccccc3)cc1C21OC(=O)c2ccccc21 (stereo not drawn) | 165 | eChemPortal |
| N#CCc1nccn1Cc1ccccc1 | 105 | OCHEM |
| C=CC1CCC(C2CCC(c3ccc(C)cc3)CC2)CC1 (stereo not drawn) | 66 | eChemPortal |
| Nc1ccc(C(c2ccc(N)cc2)c2ccc(N)cc2)cc1 | 207.8 | eChemPortal |
| CS(=O)(=O)Nc1ccccc1N | 103 | OCHEM |
| CCOc1ccccc1C(=O)CBr | 75 | OCHEM |
| Nc1nc(-c2c[nH]c3ccccc23)cs1 | 168 | OCHEM |
| O=Cc1sc(Nc2ccccc2)nc1Cl | 165 | OCHEM |
| OC(c1ccccc1)C1CCNCC1 (stereo not drawn) | 172 | OCHEM |
| C1CCc2[nH]nnc2C1 | 54 | eChemPortal |
| Cc1nc(=S)c2ccccc2[nH]1 | 212 | OCHEM |
| Cc1n[nH]c(C)n1 | 129 | OCHEM |
| Cn1cc(C(=O)Cl)c(C(F)F)n1 | 7.5 | eChemPortal |
| COc1cccc(C2CC(=O)CC(=O)C2)c1 | 132 | OCHEM |
| O=C(O)CCc1nc(=O)c2ccccc2[nH]1 | 240 | OCHEM |
| O=C(O)CCc1n[nH]c(=S)[nH]c1=O | 163 | OCHEM |
| O=[N+]([O-])c1ccc(Cl)cc1I | 63 | OCHEM |
| O=C(O)Cc1cc(=O)n(-c2ccccc2)[nH]1 | 100 | OCHEM |
| O=C(CC(C(=O)OC1CCCCC1)S(=O)(=O)[O-])OC1CCCCC1.[Na+] (stereo not drawn) | 201.5 | OFMPub, eChemPortal |
| COc1ccc(N=NC(C(C)=O)C(=O)Nc2ccccc2OC)c([N+](=O)[O-])c1 (stereo not drawn) | 225 | eChemPortal |
| CCOC(=O)Nc1ccc(N)cc1 | 74 | OCHEM |
| Cl.NCc1ccc(S(=O)(=O)N2CCOCC2)cc1 | 122 | OCHEM |
| NS(=O)(=O)c1cc(C(=O)O)c(NCc2ccco2)cc1Cl | 295 | OCHEM, PubChem |
| CSCCC(NC(=O)c1cccc(C)c1)C(=O)O (stereo not drawn) | 116 | OCHEM |
| Nc1cc(-c2ccccc2)nn1CCO | 143 | OCHEM |
| CC(C)=CC(C)(C)CC(C)(C)C | -76 | OCHEM |
| O=C(O)c1ccc(-n2cc(Br)cn2)cc1 | 274 | OCHEM |
| Cc1cc(C)c(O)c(-c2cc(C)cc(C)c2O)c1 | 137.2 | eChemPortal |
| O=C(O)c1cc(N2CCOCC2)ccc1[N+](=O)[O-] | 190 | OCHEM |
| ClCc1noc(-c2ccc(Cl)cc2)n1 | 80 | OCHEM |
| O=c1oc2cc(O)ccc2c2c1CCC2 | 215 | OCHEM |
| O=C(O)c1ccc2c(c1)C(=O)N(c1ccc(F)cc1)C2=O | 296 | OCHEM |
| COc1ccc(S(=O)(=O)Cl)cc1Cl | 81 | OCHEM |
| CCCCCCCCCCCCCCCC(=O)OCCCCCCCCCCCCCCCC(C)C | -12 | eChemPortal |
| FC(F)(F)C(F)(F)C(F)(F)c1n[nH]c(-c2ccccc2)c1Br | 123.5 | ChemicalBook |
| CCCCC(CC)CNC(=O)CC(C)CC(C)(C)C (stereo not drawn) | -77 | eChemPortal |
| O=C(O)c1cc(Cl)c2ccccc2c1O | 229 | OCHEM |
| O=[N+]([O-])c1cc(OCc2ccccc2)ccc1C=CN1CCCC1 | 110.5 | eChemPortal |

A selection of 6 entries from above:

| structure (SMILES) | melting point (°C) | via |
|---|---|---|
| Cc1cc(C)c(O)c(-c2cc(C)cc(C)c2O)c1 | 137.2 | eChemPortal |
| Nc1ccc(C(c2ccc(N)cc2)c2ccc(N)cc2)cc1 | 207.8 | eChemPortal |
| COc1ccc(-c2nc(C(=O)O)cs2)cc1OC | 205 | OCHEM |
| CCOc1ccccc1C(=O)CBr | 75 | OCHEM |
| Nc1nc(-c2c[nH]c3ccccc23)cs1 | 168 | OCHEM |
| O=Cc1sc(Nc2ccccc2)nc1Cl | 165 | OCHEM |

From the experimental data distributed with OPERA 2.9.